# Columns and labels:
# [1] = test system: SLE serum-induced interferon signature; parameters: method as in PMID 17417641; conditions: previous study; cited from earlier work
# [2] = test system: primary human monocytes / SLE serum-induced ISGs; assay: ISG induction by SLE serum in healthy donor monocytes (qPCR); assay type: cell-based; conditions: SLE serum with or without sRAGE or anti-FcRIIa antibody, 4 h; three independent experiments
# Procedure: (§1) Human cells were obtained with approval of the Institutional Review Board of the Feinstein Institute for Medical Research. PBMCs were isolated from blood of healthy donors (New York Blood Center) by density centrifugation. Monocytes were enriched by negative selection using a human monocyte enrichment kit (STEMCELL Technologies). Purity of monocytes (CD11b^+, CD14^+, LAIR-1^+) was determined to be >90% by flow cytometry (FACS Calibur, BD Biosciences, San Jose, CA, USA). Purified monocytes (2 × 10^6 cells/ml) were cultured in U-bottom 96-well plates in X-VIVO 15 serum free medium (Lonza) with the indicated reagents and harvested at 4–6 h later, or at the indicated times. […] Murine monocyte purity was determined to be >90%.
# (§2) Total RNA was extracted from cells (1–2 × 10^6 cells per sample) with an RNeasy kit (Qiagen, Germantown, MD, USA) and cDNA was generated using an iScript cDNA synthesis kit (Bio-Rad, Hercules, CA, USA). qRT-PCR was performed on a Light Cycler 480 II (Roche, Indianapolis, IN, USA). […] The relative induction was calculated by 2^−ΔΔCt.
# (§3) For RNA interference assays, human monocytes (5 × 10^6 cells) were transfected with RAGE (Thermo Fischer Catalog # AM16708 ID: 110857, 200 nM) or CD32 siRNA (Thermo Fischer Catalog #4392420 ID: s194407, 200 nM) using an Amaxa Nucleofector I Device (Lonza). […] The efficiency of the knockdown was determined by immunofluoresence microscopy and q-PCR. […]
# [3] = test system: CpG-induced ISGs, primary human monocytes; assay: ISG induction by CpG in monocytes (qPCR); assay type: cell-based; conditions: CpG with soluble RAGE or blocking anti-FcRIIa antibody, 4 h
# Procedure: as §1, §2, §3
substance,measurement,setting,value
"sRAGE: Human recombinant sRAGE, soluble form of RAGE acting as a decoy receptor",inhibition of interferon signature induction by SLE serum,[1],can inhibit the induction of an interferon signature by SLE serum
same,induction of IFIT1 or Mx1 by SLE serum after receptor blockade,[2],significantly reduced induction of either IFIT1 or Mx1
same,monocyte activation by CpG (effect of receptor blockade),[3],could be suppressed

# — paper PMC6297782, “DNA-Mediated Interferon Signature Induction by SLE Serum Occurs in Monocytes Through Two Pathways: A Mechanism to Inhibit Both Pathways” (Frontiers in Immunology, 2018)
